From patent US10973922B2, “Glycoprotein-toxic payload conjugates” (GLYKOS FINLAND OY, priority 2013, dated 2021)

Tested on: SKOV-3 ovarian cancer cell
Assay: In vitro cytotoxicity of dolastatin derivatives (PrestoBlue cell viability)
Type: cell-based, Human
Conditions: SKOV-3, applied to cell culture medium
Method: Human ovarian cancer cell line SKOV-3 was from the ATCC (Manassas, Va., USA). The cells were grown according to the manufacturer's recommendations. Log phase cultures were collected and 5000 cells/well were seeded onto 96-well plates and incubated for 24 h. Serial dilutions of test molecules from a stock solution of 100 μM in 10% DMSO were made in cell culture medium, added to cells (maximum concentration of dimethylsulphoxide was 1%) and cultures were incubated further for 96 h. Cell viability was evaluated using PrestoBlue cell viability reagent (Life Technologies, Carlsbad, Calif., USA) according to the manufacturer's instructions. Cells were incubated for 2 h, and dye reduction was measured by absorbance at 570 nm. The compounds were assayed 1-2 times in triplicate.
Results of an exemplary assay are shown in FIG. 1, in which compound numbering is according to Example 1. The results are expressed in Table 1 as IC50 values of the analyzed derivatives.

Row | Substance | cytotoxicity compared to 1 (MMAF)
1 | N-(6-azido-6-deoxy-D-galactosyl)-MMAF [Compound 4] | equally or only slightly less cytotoxic
2 | N-(6-O-propargyl-D-galactosyl)-MMAF [Compound 3] | equally or only slightly less cytotoxic
